Target: T1, Borealin N-terminal domain (20-88) (human, UniProt Q53HL2 20-88, biotinylated on the Avi-tag (co-expression with BirA))
T1 construct: range 20-88; The construct carries His- and Avi-tags; Expressed in E. coli; Immobilised via neutravidin (ELISA) or His-tag/NTA chip (SPR); also called Bor-N
T1 sequence (looked up): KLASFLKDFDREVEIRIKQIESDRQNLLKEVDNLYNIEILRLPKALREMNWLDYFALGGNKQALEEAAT
Assay: single-point Fab ELISA, 50 nM biotinylated target on neutravidin, protein L-HRP [panel A]
Method: To rapidly reconfirm the binding and specificity of the obtained Fabs after reformatting into the expression vectors single-point Fab ELISA was performed (FIG. 2). Briefly, 50 nM Avi-tagged targets were immobilized on the prepared NAV-coated and blocked with 0.5% BSA in PBS 96-well ELISA plates. The target coated plates were washed with appropriate buffer (TBST or PBST) and were incubated with 200 nM Fab for 20 minutes and then washed. The washed plates were incubated with protein L conjugated with HRP (1:5000 diluted in TBST) for 30 minutes. Plates were washed and the reaction was developed using the TMB chromogenic substrate (Thermofisher) and subsequently quenched with 1M HCl. Absorbance was read at 450 nm on Epoch plate reader.

binding result: no binding (tested: 200 nM)
B1: BOR-N-55 (Fab, V domains shown)
VH: EVQLVESGGGLVQPGGSLRLSCAASGFNVYYSSIHWVRQAPGKGLEWVASISPYYGSTSYADSVKGRFTISADTSKNTAYLQMNSLRAEDTAVYYCARRWYYTKVFMWGMDYWGQGTLVTVSS
VL: DIQMTQSPSSLSASVGDRVTITCRASQSVSSAVAWYQQKPGKAPKLLIYSASSLYSGVPSRFSGSRSGTDFTLTISSLQPEDFATYYCQQSSSSLITFGQGTKVEIKR

Reference: US20250127814A1 (UNIVERSITY OF CHICAGO, published 2025)
